Target: sarin-, cyclosarin-, VX- and paraoxon-inhibited human AChE (Homo sapiens, UniProt P22303)
Test: in vitro reactivation kinetics of four OP-hAChE conjugates
Conditions: for in vitro reactivation efficiency compared to RS194B: all four OP conjugates, 0.1M Phosphate buffer pH 7.4, 37° C.; for order of potency (printed as in vivo potency): rank order from the initial in vitro analysis

SMILES | in vitro reactivation efficiency compared to RS194B | order of potency (printed as in vivo potency)
O=C(/C=N/O)NCCN1CCN(CCNC(=O)/C=N/O)CC1 | generally similar to RS194B or slower | LG-747 greater than LG-700
O=C(/C=N/O)NCCN1CCCN(CCNC(=O)/C=N/O)CC1 | – | greater than RS194B
O=C(/C=N/O)NCCCN1CCCN(CCCNC(=O)/C=N/O)CC1 | followed by homopiperazine LG-804 | greater than LG-703
O=C(/C=N/O)NCCC1CCN(CCNC(=O)/C=N/O)CC1 | most efficient reactivators | greater than LG-804
O=C(/C=N/O)NCCCN1CCN(CCNC(=O)/C=N/O)CC1 | – | greater than LG-747

Reference: patent US11820749B2, “Centrally active and orally bioavailable uncharged bisoxime antidotes for organophosphate poisoning and methods for making and using them” (dated 2023)
